From patent publication US20240228585A1 come the findings set out here.

Assay [1] deals with trypsin. As to the kind of experiment: BLI, trypsin on sensor (target taken from paragraph 377); run 3, Conc. 377.6 nM [cont.].
The target of assay [2] is trypsin. As to the kind of experiment: BLI (BLItz), biotinylated trypsin on streptavidin sensor; same value in rows 4, 10 and 11 [cont.].
For assay [3], the target named is trypsin. As to the kind of experiment: BLI, trypsin on sensor; run 10, Conc. 249.1 nM [cont.]. (Biolayer interferometry detects binding as a change in optical thickness at a sensor tip.)
Assay [4] concerns the target trypsin. The assay is described as follows: BLI, trypsin on sensor (target taken from paragraph 377); run 2, Conc. 3776 nM [cont.].
In assay [5] the target is trypsin. As to the kind of experiment: BLI, trypsin on sensor (target taken from paragraph 377); run 4, Conc. 37.76 nM [cont.].
Assay [6] concerns the target trypsin. As to the kind of experiment: BLI, trypsin on sensor; run 4, Conc. 24910 nM [cont.].
Assay [7] deals with trypsin. As to the kind of experiment: BLI (BLItz), trypsin on sensor (target taken from paragraph 377); Global fitting (1:1); same value in rows 1 to 5 [cont.].
Assay [8] deals with trypsin. The assay is described as follows: BLI, trypsin on sensor (target taken from paragraph 377); run 1, Conc. 37760 nM [cont.].
The target in assay [9] is trypsin. The assay is described as follows: BLI (BLItz), biotinylated trypsin on streptavidin sensor; same value in rows 4, 10 and 11; ka Error 2.11e2 [cont.].
Assay [10] addresses trypsin. The assay is described as follows: BLI, trypsin on sensor; run 11, Conc. 37760 nM [cont.].
The target in assay [11] is trypsin. As to the kind of experiment: BLI (BLItz), trypsin on sensor (target taken from paragraph 377); Global fitting (1:1); same value in rows 1 to 5; ka Error 1.768e3 [cont.].
The target in assay [12] is trypsin. As to the kind of experiment: BLI (BLItz), sensor loaded with biotinylated trypsin; the sheet does not name the target, it is taken from paragraph 377; Global fitting (1:1); same value in rows 1 to 5 [cont.].
For assay [13], the target named is trypsin. The assay is described as follows: BLI (BLItz), biotinylated trypsin on streptavidin sensor, analyte diluted in PBS; same value in rows 4, 10 and 11 (shared fit) [cont.].
For assay [14], the target named is trypsin. The assay is described as follows: BLI, trypsin on sensor (target taken from paragraph 377); run 5, Conc. 3.776 nM [cont.].
Assay [15] concerns the target trypsin. The assay is described as follows: BLI (BLItz), biotinylated trypsin on streptavidin sensor, analyte diluted in PBS pH 7.4; same value in rows 3, 6, 9 and 12 (shared fit) [cont.].
Assay [16] concerns the target trypsin. As to the kind of experiment: BLI (FIG. 25).
Assay [17] deals with trypsin. The assay is described as follows: BLI, trypsin on sensor; run 5, Conc. 3299 nM [cont.].
The target of assay [18] is trypsin. As to the kind of experiment: BLI (BLItz), trypsin on sensor; pH not printed on the sheet; Global fitting (1:1); same value in rows 1, 3, 4, 5 and 6; ka Error 1.191e3 [cont.].
For assay [19], the target named is trypsin. As to the kind of experiment: BLI (BLItz), biotinylated trypsin on streptavidin sensor; pH not printed on the sheet (paragraph 377 sets this run against pH 7.4); Global fitting (1:1); same value in rows 1, 3, 4, 5 and 6 [cont.].
The target in assay [20] is trypsin. The assay is described as follows: BLI, trypsin on sensor; run 12, Conc. 329800 nM [cont.].
For assay [21], the target named is trypsin. The assay is described as follows: BLI, trypsin on sensor; run 1, Conc. 164900 nM [cont.].
The target in assay [22] is trypsin. As to the kind of experiment: BLI, trypsin on sensor; run 4, Conc. 32.99 nM [cont.].
The target in assay [23] is trypsin. The assay is described as follows: BLI, trypsin on sensor; run 3, Conc. 32980 nM [cont.].
Assay [24] addresses trypsin. The assay is described as follows: BLI, trypsin on sensor; run 6, Conc. 329.9 nM [cont.].
In assay [25] the target is trypsin. The assay is described as follows: BLI (BLItz), biotinylated trypsin on streptavidin sensor; same value in rows 3, 6, 9 and 12; ka Error 1.6e3 [cont.].
For assay [26], the target named is trypsin. As to the kind of experiment: BLI, trypsin on sensor; run 6, Conc. 2473 nM [cont.].
Assay [27] addresses trypsin. As to the kind of experiment: BLI, trypsin on sensor; run 9, Conc. 247.3 nM [cont.].
Assay [28] deals with trypsin. As to the kind of experiment: BLI (BLItz), trypsin on sensor; pH not printed on the sheet; Global fitting (1:1); same value in rows 1, 3, 4, 5 and 6; kd Error 8.708e-4 [cont.].
For assay [29], the target named is trypsin. The assay is described as follows: BLI (BLItz), biotinylated trypsin on streptavidin sensor; same value in rows 3, 6, 9 and 12; kd Error 9.452e-5 [cont.].
The target of assay [30] is trypsin. As to the kind of experiment: BLI, trypsin on sensor; run 3, Conc. 24730 nM [cont.].

What is called koff is the first-order rate constant of dissociation. As usually defined, the kon is the rate constant with which the complex forms. Read a low kon as slow association. What is called Kd is a measure of binding affinity in units of concentration. A high value points to a looser complex.

For the substance Fc-BPTI (Fc fusion), the R equilibrium with trypsin [1] was determined as 1.67; with trypsin [3], 5.52; with trypsin [4] it was 1.84; with trypsin [5], 2.57; with trypsin [6] it was 1.97; with trypsin [8], 1.77. Further, the R equilibrium in the assay with trypsin [10] stood at 2.91; with trypsin [14], 6.79. Also, the off-rate (koff) with trypsin [2] and with trypsin [7] was less than 1e-07 s⁻¹ each time. For the same substance, the kon with trypsin [9] amounted to 10200 M⁻¹ s⁻¹; in the assay with trypsin [11] it was 72700 M⁻¹ s⁻¹. The Kd with trypsin [12] and in the assay with trypsin [13] was less than 0.001 nM each time.
As to Fc-BPTI(Ala16His) (Fc fusion), the figures for the Kd in the assay with trypsin [15] and with trypsin [19] were 110 nM and 1130 nM, respectively. Also, in the assay with trypsin [16], the fold change in KD against the pH 7.4 section turned out to be 10 fold. In addition, the R equilibrium was 0.754 with trypsin [17]; 2.6 with trypsin [20]; 1.46 in the assay with trypsin [21]; 0.00216 with trypsin [22]; 0.942 in the assay with trypsin [23]; 0.88 with trypsin [24]. Moreover, the R equilibrium with trypsin [26] is 1.67; in the assay with trypsin [27], 1.99; with trypsin [30], 2.08. Also, the on-rate (kon) with trypsin [18] turned out to be 27800 M⁻¹ s⁻¹; with trypsin [25] it was 39300 M⁻¹ s⁻¹. For the same substance, the koff came to 0.0315 s⁻¹ with trypsin [28] and 0.00434 s⁻¹ with trypsin [29].
